Only a part is listed here, and it is no random draw. Activity calls are given as the source filed them. No stated cut-off is given here; in the data, active means inhibition above about 22%; inactive means the rest.
assay: fluorescence retest of MPTP screen hits in isolated mitochondria, single concentration (AID 624504); settings: membrane potential, Rhodamine 123 fluorescence, at 10 µM, hits give high values;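 further: 0% = DMSO vehicle and 100% = positive control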

| SMILES | inhibition |
| --- | --- |
| CCC1=CC2Cc3nc4ccc(Cl)cc4c(N)c3C(C1)C2 (stereo not given) | active: 84.6% |
| O=[N+]([O-])c1ccc(-c2cc([N+](=O)[O-])c(O)c([N+](=O)[O-])c2)cc1 | active: 61.1% |
| CSc1ccc(Nc2c([N+](=O)[O-])cc([N+](=O)[O-])cc2[N+](=O)[O-])cc1 | active: 70.4% |
| O=c1c2cc([N+](=O)[O-])ccc2[nH]c2c([N+](=O)[O-])cc([N+](=O)[O-])cc12 | active: 92.4% |
| O=[N+]([O-])c1ccc(O)c(/C=N/Nc2ccc([N+](=O)[O-])cc2[N+](=O)[O-])c1 | active: 63.3% |

Reference: PubChem BioAssay AID624504 (Sanford-Burnham Center for Chemical Genomics, 2012)
